The species named for one assay is Rattus norvegicus. As to the kind of experiment: Selectivity ratio of Ki for sigma 1 receptor in rat brain membrane to sigma 2 receptor in rat brain membrane. Format: cell membranes.
Assay [1] concerns the target Sigma non-opioid intracellular receptor 1 (Homo sapiens, UniProt Q99720). Description: Binding affinity to sigma 1 receptor.
The target of assay [2] is Sigma non-opioid intracellular receptor 1 (Rattus norvegicus, UniProt Q9R0C9). Description: Displacement of (-)-[3H]pentazocine from sigma 1 receptor in rat brain membrane after 120 mins. The format is cell membranes.
Assay [3] is described as follows: Displacement of [3H]di-o-tolylguanidine from sigma 2 receptor in rat brain membrane after 120 mins. The format is cell membranes. In general terms: Displacement assays read how much labelled ligand stays bound in the presence of the test substance.

Amino acid sequences for entries named in this document (tags omitted).
UniProt Q99720, whole entry: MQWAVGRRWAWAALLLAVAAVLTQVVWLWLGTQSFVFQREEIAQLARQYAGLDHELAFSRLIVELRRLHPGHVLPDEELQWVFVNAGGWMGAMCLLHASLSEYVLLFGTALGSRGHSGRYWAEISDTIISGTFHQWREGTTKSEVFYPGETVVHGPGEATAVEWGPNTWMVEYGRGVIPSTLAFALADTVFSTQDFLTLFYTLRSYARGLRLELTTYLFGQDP
UniProt Q9R0C9, whole entry: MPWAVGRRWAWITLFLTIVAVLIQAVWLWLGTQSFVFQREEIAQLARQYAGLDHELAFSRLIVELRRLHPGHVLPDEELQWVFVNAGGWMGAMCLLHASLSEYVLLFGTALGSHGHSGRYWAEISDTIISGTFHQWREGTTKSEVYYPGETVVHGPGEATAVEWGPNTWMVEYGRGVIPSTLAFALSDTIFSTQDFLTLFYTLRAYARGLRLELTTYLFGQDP

This passage reports Ratio Ki and Ki results from ChEMBL document CHEMBL1828538, “Synthesis and pharmacological evaluation of indole-based sigma receptor ligands” (Eur J Med Chem, 2011).

Take `COc1cc2c(cc1OC)CN(CCCCn1ccc3ccccc31)CC2`: the Ratio Ki in the assay filed under Rattus norvegicus was 38.4.

The Ki is a dissociation constant, usually derived from enzyme kinetics or from competition with a known ligand. High values mean weaker binding, low ones tighter binding. `Fc1ccc(-n2cc(CCCCN3CCC4(CC3)OCc3ccccc34)c3ccccc32)cc1` [SIRAMESINE] came in with a Ki in assay [1] of 17 nM. Take `COc1cc2c(cc1OC)CN(CCCCn1cc(-c3ccc(F)cc3)c3ccccc31)CC2`: the results for the Ki in assay [2] and in assay [3] were 2950 nM and 7.45 nM, respectively.
